These results are taken from ChEMBL document CHEMBL1212833, “Protein lysine methyltransferase G9a inhibitors: design, synthesis, and structure activity relationships of 2,4-diamino-7-aminoalkoxy-quinazolines” (J Med Chem, 2010).

Experiment [1] concerns the target T1, Histone-lysine N-methyltransferase EHMT2 (Homo sapiens, UniProt Q96KQ7).
T1 sequence (Q96KQ7 whole entry): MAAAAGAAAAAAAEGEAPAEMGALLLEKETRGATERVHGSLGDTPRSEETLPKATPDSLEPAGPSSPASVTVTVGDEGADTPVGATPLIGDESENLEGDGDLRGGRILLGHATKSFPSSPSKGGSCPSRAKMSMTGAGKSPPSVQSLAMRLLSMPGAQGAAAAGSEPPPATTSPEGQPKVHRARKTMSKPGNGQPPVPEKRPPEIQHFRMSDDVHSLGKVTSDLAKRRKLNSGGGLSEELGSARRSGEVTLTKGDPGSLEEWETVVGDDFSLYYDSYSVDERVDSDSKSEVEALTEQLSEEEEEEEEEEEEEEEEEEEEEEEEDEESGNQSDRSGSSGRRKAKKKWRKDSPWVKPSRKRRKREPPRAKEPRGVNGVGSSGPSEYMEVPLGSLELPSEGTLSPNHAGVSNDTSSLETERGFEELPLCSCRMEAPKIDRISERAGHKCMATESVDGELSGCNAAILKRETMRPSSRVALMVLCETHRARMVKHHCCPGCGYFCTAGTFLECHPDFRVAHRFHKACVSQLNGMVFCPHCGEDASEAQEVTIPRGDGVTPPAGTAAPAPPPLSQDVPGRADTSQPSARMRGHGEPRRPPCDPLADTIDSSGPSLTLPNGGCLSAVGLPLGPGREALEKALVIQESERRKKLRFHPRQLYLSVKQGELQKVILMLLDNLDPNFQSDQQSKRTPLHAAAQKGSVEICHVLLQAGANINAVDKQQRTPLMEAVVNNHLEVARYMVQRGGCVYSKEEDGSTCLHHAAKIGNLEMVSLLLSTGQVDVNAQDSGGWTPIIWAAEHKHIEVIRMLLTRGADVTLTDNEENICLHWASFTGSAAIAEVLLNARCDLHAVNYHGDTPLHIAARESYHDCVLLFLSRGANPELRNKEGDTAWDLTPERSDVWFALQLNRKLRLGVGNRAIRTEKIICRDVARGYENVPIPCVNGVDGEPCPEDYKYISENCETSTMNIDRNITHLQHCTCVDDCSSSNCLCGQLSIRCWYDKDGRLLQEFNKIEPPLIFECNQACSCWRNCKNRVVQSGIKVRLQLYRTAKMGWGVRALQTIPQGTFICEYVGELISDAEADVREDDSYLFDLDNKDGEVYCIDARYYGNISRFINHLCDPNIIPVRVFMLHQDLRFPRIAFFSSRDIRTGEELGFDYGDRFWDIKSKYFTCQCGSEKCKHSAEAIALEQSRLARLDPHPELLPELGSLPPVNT
Nature of the experiment: Inhibition of methyl transferase activity of G9a assessed as inhibition of H3K9 methylation by chemiluminescence based oxygen tunneling assay.

Experiment [2] addresses T1, Histone-lysine N-methyltransferase EHMT2. Nature of the experiment: Activity at methyl transferase activity G9a by enzyme coupled S-adenocylehomocystein detection assay.
Experiment [3] concerns the target T2, Histone-lysine N-methyltransferase EHMT1 (Homo sapiens, UniProt Q9H9B1).
T2 sequence (Q9H9B1 whole entry): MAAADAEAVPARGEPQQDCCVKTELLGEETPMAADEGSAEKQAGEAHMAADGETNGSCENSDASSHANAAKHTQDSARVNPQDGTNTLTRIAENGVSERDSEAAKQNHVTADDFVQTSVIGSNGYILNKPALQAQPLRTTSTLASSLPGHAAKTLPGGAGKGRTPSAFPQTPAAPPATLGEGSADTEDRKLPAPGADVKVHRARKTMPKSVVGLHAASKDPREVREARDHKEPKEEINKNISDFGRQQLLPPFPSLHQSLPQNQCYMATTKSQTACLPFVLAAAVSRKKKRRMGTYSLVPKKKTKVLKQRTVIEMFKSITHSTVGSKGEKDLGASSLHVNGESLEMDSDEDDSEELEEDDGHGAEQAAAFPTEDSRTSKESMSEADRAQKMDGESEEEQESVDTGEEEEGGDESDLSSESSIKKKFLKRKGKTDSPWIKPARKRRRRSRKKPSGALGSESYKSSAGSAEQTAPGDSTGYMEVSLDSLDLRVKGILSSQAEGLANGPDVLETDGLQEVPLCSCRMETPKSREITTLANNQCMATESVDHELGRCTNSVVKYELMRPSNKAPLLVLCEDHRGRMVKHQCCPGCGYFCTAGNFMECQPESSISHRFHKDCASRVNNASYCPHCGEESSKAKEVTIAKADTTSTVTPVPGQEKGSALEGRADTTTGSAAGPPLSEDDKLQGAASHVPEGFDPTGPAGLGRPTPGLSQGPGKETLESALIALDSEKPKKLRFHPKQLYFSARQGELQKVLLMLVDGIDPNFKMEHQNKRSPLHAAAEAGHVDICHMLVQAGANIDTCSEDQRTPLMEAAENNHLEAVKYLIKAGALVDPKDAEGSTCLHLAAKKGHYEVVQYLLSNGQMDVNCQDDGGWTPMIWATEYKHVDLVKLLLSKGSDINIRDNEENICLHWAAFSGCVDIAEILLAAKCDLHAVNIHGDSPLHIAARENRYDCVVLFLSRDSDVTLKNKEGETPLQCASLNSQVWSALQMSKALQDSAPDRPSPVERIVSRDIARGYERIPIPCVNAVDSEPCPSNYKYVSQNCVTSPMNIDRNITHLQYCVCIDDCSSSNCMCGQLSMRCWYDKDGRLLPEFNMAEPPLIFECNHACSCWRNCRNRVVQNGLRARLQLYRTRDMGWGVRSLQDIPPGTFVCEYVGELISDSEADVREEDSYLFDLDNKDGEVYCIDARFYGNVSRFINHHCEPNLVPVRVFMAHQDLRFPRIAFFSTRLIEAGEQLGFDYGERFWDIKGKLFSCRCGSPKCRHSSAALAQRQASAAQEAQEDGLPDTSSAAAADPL
Nature of the experiment: Activity at methyl transferase activity GLP by enzyme coupled S-adenocylehomocystein detection assay.

Experiment [4] addresses T2, Histone-lysine N-methyltransferase EHMT1. Nature of the experiment: Activity at methyl transferase activity GLP by chemiluminescence based oxygen tunneling assay.

Consider `COc1cc2c(NC3CCN(C)CC3)nc(N3CCCN(C)CC3)nc2cc1OCCN(C)C`, for which the concentration for half-maximal inhibition (IC50) was 120 nM in experiment [1] and 110 nM in experiment [2].

`COc1cc2c(NC3CCN(C)CC3)nc(N3CCCN(C)CC3)nc2cc1OCCCC(C)C`: the 50% inhibitory concentration (IC50) in experiment [1] was 5200 nM.

On to `COc1cc2nc(N3CCCN(C)CC3)nc(NC3CCN(Cc4ccccc4)CC3)c2cc1OC`, for which the values for the IC50 in experiment [3] and in experiment [4] were 34 nM and 27 nM, respectively.
